{
  "source": "paper PMC10465358",
  "about": "(Nature Microbiology, 2023)",
  "system": "P. bivia GH13",
  "experiment": "BODIPY fluorescent starch amylase assay with purified enzyme",
  "note": "pIC50: −log10 of the molar value.",
  "data": [
    {"smiles": "C[C@H]1O[C@H](O[C@H]2[C@H](O)[C@@H](O)[C@@H](O[C@H]3[C@H](O)[C@@H](O)C(O)O[C@@H]3CO)O[C@@H]2CO)[C@H](O)[C@@H](O)[C@@H]1N[C@H]1C=C(CO)[C@@H](O)[C@H](O)[C@H]1O", "note": "(stereo partly shown) [acarbose]", "values": [
      {"measurement": "pIC50", "value": 6.08}
    ]}
  ]
}
